From ChEMBL document CHEMBL4725451, “Discovery of Tricyclic Xanthines as Agonists of the Cannabinoid-Activated Orphan G-Protein-Coupled Receptor GPR18” (ACS Med Chem Lett, 2020)

Chains of the proteins cited; added tags and fusions are not shown.
UniProt P34972, whole entry: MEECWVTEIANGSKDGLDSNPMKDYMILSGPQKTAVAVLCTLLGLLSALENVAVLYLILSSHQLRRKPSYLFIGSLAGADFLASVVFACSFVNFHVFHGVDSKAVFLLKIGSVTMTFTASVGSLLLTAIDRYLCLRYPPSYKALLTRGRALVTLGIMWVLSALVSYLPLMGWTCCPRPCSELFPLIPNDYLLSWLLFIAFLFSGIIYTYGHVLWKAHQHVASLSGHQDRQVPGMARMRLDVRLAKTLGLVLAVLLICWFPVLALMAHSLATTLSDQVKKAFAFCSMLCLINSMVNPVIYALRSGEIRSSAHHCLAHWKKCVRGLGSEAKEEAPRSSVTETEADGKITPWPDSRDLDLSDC

Target: Cannabinoid receptor 2 (Homo sapiens) (UniProt P34972)
Test: Displacement of [3H]CP55,940 from human CB2 receptor expressed in CHO cell membranes at 10 uM after 2 hrs by liquid scintillation analysis relative to control
Type: cell-based
Settings: filed as agonist

SMILES: Cn1c(=O)c2c(nc3n2CCCCN3CCc2c[nH]c3ccccc23)n(C)c1=O
- inhibition: 46%
